Our source for the IC50 values is US10358436B2, “Kinase inhibitors and method of treating cancer” (University Health Network, priority 2010, dated 2019).

Protein sequences, listed by entry. Tags and fused reporters are not part of them.
UniProt Q96GD4, whole entry: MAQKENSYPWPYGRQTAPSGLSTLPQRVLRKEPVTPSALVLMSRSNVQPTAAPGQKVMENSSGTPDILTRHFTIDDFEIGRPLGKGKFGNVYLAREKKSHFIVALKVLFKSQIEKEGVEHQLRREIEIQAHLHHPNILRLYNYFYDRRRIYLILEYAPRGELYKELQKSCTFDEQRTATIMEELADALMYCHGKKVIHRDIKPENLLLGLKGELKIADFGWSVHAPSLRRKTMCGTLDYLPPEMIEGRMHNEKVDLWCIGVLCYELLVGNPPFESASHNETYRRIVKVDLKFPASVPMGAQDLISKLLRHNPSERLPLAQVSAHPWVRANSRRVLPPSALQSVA

The target of the assay is Aurora B (Homo sapiens (Human), UniProt Q96GD4). Description: Aurora B inhibition assay (Z-Lyte). As to conditions: read-out: Aurora B IC50 Ranges. It is filed as biochemical.

Consider `COc1ccc2c(c1)[C@]1(C[C@H]1c1ccc3c(-c4ccc(N5CCN(C(C)C)CC5)cc4)n[nH]c3c1)C(=O)N2` (relative stereo) [Example A96, (1R*,2S*)-2-(3-(4-(4-isopropylpiperazin-1-yl)phenyl)-1H-indazol-6-yl)-5′-methoxyspiro[cyclopropane-1,3′-indolin]-2′-one], for which the IC50 was under 100 nM. As for `Cc1ccc2c(c1)[C@]1(C[C@H]1c1ccc3c(/C=C/c4ccc(CN(C)C)cc4)n[nH]c3c1)C(=O)N2` (relative stereo) [Example A169, (1R*,2S*)-(E)-2-(3-(4-((dimethylamino)methyl)styryl)-1H-indazol-6-yl)-5′-methylspiro[cyclopropane-1,3′-indolin]-2′-one 2,2,2-trifluoroacetate], the IC50 was under 100 nM.

By IC50 is commonly meant the point on the concentration scale where inhibition reaches its midpoint.
